Measured values as given in ChEMBL document CHEMBL4311940, “Design, Synthesis, and Biological Evaluation of 4-Methyl Quinazoline Derivatives as Anticancer Agents Simultaneously Targeting Phosphoinositide 3-Kinases and Histone Deacetylases” (J Med Chem, 2019).

Amino acid sequences for entries named in this document (tags omitted). A change or cut given only in a name is not applied to a line headed by its entry.
UniProt O15379: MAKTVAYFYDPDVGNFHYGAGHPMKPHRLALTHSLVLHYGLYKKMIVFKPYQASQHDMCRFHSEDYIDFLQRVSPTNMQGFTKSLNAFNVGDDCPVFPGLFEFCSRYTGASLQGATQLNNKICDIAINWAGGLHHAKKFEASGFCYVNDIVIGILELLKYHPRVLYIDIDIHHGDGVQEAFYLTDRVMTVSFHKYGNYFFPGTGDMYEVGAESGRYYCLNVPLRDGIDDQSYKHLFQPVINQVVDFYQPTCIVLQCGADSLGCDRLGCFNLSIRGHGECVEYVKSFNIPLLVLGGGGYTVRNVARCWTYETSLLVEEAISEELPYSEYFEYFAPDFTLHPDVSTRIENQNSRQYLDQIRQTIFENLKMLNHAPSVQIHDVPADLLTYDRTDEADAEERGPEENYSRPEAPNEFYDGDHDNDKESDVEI
UniProt Q9UBN7: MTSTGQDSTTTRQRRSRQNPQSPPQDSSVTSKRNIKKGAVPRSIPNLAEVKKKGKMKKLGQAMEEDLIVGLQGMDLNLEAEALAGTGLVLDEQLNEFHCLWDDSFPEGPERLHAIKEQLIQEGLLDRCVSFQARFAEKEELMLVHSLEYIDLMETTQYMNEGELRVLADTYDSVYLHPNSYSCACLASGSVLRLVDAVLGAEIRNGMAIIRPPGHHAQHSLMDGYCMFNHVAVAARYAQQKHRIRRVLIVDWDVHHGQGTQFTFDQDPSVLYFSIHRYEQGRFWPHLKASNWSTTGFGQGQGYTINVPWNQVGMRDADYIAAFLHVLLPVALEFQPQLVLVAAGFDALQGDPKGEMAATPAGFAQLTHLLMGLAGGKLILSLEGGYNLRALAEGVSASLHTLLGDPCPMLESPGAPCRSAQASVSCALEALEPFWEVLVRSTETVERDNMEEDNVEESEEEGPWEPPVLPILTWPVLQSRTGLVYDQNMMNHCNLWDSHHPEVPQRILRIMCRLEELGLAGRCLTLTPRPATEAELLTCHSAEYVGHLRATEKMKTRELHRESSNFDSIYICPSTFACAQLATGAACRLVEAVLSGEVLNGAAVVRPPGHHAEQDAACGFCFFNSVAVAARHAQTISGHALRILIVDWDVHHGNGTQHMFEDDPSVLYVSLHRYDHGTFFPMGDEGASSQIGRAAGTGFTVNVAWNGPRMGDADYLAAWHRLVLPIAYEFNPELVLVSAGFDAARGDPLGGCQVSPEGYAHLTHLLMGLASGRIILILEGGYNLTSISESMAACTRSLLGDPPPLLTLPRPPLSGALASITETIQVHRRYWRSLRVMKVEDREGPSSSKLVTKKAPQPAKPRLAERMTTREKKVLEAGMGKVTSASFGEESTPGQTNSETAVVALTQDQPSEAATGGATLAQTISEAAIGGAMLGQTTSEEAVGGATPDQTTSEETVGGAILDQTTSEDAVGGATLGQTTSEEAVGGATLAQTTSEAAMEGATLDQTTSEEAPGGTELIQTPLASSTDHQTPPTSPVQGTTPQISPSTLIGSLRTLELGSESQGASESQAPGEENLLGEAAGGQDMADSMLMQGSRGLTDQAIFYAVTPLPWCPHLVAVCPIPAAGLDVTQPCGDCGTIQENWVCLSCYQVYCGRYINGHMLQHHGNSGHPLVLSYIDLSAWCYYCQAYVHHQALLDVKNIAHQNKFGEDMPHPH
UniProt Q92769: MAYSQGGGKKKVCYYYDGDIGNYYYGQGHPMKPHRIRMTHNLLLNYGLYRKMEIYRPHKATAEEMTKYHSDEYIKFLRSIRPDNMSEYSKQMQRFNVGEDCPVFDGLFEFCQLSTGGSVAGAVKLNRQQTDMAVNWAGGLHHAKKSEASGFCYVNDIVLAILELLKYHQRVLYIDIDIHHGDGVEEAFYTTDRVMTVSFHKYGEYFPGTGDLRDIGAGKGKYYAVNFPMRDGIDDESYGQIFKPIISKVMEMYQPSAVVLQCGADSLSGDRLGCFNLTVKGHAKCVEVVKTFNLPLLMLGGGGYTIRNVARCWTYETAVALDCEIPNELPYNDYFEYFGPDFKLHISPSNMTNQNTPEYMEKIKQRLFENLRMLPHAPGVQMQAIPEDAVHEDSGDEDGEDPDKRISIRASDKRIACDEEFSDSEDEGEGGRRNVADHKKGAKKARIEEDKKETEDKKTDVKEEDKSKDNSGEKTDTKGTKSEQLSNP
UniProt Q9UQL6: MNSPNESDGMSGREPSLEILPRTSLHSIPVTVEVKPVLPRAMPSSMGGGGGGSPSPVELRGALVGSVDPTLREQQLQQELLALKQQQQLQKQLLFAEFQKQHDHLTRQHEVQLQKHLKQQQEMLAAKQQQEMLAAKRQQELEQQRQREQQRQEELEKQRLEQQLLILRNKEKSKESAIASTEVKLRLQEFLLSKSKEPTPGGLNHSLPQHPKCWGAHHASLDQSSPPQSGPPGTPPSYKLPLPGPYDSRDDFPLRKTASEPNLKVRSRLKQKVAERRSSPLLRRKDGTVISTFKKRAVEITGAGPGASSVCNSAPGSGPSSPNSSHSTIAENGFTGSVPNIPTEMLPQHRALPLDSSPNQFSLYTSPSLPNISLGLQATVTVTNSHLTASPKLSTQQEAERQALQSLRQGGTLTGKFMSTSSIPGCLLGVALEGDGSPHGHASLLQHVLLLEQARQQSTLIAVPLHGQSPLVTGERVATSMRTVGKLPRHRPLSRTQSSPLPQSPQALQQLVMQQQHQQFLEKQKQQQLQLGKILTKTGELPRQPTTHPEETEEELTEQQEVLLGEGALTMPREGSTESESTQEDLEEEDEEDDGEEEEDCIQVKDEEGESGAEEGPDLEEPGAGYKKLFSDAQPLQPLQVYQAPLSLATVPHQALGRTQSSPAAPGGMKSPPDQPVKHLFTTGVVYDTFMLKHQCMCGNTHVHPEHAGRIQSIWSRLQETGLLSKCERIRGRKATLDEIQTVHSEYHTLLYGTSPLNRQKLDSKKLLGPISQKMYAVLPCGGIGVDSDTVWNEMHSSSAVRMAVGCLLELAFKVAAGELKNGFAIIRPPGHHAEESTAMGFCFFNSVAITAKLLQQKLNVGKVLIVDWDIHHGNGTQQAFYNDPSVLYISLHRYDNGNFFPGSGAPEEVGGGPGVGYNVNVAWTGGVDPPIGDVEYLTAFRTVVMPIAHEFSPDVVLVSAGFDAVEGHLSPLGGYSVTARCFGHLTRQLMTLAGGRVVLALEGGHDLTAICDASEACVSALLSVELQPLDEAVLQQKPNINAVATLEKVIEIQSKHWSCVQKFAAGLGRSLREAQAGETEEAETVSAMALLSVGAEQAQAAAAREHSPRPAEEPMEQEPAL
UniProt Q8WUI4: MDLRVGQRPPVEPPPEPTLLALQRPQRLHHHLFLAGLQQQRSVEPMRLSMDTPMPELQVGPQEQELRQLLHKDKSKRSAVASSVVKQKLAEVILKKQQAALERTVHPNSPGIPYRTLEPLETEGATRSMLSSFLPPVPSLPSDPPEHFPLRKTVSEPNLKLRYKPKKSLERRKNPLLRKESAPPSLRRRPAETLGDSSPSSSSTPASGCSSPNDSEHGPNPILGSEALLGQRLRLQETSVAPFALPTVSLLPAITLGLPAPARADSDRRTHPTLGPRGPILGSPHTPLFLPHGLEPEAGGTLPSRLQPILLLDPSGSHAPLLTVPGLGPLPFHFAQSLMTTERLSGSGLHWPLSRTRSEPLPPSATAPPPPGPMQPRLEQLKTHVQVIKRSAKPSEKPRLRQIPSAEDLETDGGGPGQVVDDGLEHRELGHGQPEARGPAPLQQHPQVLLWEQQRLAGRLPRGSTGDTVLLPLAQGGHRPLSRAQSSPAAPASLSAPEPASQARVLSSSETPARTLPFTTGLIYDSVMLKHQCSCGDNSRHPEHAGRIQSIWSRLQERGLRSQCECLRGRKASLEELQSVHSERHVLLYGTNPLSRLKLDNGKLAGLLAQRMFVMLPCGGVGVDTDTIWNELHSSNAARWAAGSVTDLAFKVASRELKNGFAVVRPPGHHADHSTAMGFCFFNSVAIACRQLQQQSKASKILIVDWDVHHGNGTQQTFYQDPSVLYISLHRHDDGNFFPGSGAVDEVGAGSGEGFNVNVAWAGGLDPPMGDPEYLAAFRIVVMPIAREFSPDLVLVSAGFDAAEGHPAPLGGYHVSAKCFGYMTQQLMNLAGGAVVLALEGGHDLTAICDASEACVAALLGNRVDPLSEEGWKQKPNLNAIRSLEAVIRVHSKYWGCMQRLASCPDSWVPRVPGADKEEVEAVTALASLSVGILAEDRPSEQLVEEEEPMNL
UniProt Q96DB2: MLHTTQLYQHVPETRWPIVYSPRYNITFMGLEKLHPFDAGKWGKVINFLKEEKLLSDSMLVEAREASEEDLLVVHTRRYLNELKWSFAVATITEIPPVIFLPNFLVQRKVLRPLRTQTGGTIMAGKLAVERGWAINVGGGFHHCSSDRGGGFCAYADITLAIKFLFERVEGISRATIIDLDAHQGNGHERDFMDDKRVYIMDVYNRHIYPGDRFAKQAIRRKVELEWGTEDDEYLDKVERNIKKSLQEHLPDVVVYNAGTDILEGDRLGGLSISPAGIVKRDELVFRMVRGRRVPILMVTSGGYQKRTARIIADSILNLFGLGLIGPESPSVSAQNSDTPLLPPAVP
UniProt Q9UKV0: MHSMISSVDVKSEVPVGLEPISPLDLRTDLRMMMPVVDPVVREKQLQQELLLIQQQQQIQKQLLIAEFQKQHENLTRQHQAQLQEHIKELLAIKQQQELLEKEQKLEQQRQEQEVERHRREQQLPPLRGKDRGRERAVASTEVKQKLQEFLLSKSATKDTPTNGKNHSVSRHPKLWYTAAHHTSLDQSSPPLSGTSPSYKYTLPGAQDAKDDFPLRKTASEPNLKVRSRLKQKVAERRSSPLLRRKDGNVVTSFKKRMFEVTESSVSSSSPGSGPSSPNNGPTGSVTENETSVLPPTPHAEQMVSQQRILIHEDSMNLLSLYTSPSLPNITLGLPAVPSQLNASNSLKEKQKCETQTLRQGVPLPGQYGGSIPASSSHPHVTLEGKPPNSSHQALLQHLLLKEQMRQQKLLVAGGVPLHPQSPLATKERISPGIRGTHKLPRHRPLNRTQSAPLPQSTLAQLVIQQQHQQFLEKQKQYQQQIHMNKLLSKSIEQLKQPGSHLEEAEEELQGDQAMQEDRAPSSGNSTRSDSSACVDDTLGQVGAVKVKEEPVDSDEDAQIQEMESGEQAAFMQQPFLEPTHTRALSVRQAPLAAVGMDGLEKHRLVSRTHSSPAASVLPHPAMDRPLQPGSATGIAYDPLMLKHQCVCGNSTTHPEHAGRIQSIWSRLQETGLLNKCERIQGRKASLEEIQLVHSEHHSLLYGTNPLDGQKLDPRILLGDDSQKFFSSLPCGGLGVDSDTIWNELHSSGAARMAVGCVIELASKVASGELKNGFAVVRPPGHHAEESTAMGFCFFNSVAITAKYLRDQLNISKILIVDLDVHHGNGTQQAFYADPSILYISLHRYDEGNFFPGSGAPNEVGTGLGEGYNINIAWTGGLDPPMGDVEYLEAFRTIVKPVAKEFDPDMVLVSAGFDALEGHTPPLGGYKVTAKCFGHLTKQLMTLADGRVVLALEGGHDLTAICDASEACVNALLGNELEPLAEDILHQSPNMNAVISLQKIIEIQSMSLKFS
UniProt Q969S8: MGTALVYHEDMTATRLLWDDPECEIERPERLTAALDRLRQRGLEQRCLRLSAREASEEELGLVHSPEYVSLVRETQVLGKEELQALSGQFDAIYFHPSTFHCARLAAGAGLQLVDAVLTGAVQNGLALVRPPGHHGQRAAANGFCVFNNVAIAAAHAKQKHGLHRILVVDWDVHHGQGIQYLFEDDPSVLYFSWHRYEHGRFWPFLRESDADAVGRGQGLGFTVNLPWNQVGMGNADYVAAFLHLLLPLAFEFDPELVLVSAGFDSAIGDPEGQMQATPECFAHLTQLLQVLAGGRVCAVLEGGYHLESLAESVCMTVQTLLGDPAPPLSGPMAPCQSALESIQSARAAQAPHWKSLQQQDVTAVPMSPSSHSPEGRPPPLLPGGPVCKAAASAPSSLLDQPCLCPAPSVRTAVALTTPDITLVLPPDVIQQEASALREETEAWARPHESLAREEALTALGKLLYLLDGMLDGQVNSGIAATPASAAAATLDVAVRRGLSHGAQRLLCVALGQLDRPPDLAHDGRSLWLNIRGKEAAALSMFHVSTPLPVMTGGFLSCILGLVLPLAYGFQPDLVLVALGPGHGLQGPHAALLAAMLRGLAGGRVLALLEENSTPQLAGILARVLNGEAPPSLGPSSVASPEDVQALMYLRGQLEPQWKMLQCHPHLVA

Experiments:
[1] = molecular target: T1, Histone deacetylase (Homo sapiens) (UniProt Q13547+O15379+Q9UBN7+Q92769+Q9UQL6+Q8WUI4+Q9BY41+Q96DB2+P56524+Q9UKV0+Q969S8); assay: Inhibition of HDAC in human HCT116 cells assessed as increase in acetylated histone H3 levels after 16 hrs by Western blot analysis; assay type: cell-based
Procedure, shortened: (§1)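 HCT116 cells lysed in RIPA after washes in cold PBS. 40 μg protein run on 10−12% SDS-PAGE and transferred to nitrocellulose. Membrane blocked in 5% milk/TBST for 0.5 h, primary antibodies 1:1000 overnight at 4 °C, secondary 1:1000 for 1 h, ECL detection.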

[2] = molecular target: T1, Histone deacetylase (Homo sapiens); assay: Inhibition of HDAC in human HCT116 cells assessed as increase in acetylated p53 levels after 16 hrs by Western blot analysis; assay type: cell-based; procedure, shortened: as §1

`COc1ncc(-c2cc(OCCCCCCC(=O)NO)c3ncnc(C)c3c2)cc1F` was tested, and the inhibition [1] was “Dose-dependent effect” and the inhibition [2] was “Dose-dependent effect”.
